Biological target: T1, DMPK Catalytic Domain (Homo sapiens, UniProt Q09013)
T1 sequence (Q09013 71-339 limits assumed): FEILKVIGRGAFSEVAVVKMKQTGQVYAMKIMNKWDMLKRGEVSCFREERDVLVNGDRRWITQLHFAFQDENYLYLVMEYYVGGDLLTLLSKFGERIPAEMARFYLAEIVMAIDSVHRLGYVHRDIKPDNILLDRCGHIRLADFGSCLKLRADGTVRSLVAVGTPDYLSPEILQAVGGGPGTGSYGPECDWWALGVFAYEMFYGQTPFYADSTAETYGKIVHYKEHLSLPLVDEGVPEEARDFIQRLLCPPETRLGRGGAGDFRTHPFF
Assay: Differential Scanning Fluorimetry (DSF) Tm shift
Assay type: binding
Set-up: For all of them, we expressed and purified the catalytic domain separately; His-tag; made in house; host or cells: Escherichia coli
Conditions: 2 µM protein, 10 µM inhibitor, average of 3 experiments, each in duplicate

Q: CO[C@@H]1[C@H](N(C)C(=O)c2ccccc2)C[C@H]2O[C@]1(C)n1c3ccccc3c3c4c(c5c6ccccc6n2c5c31)C(=O)NC4 was tested. Which “Melting temperature (Tm) shift” value did it give?
A: 1.7 degrees Celcius
